Laboratory results from US20190345536A1, “DETECTION METHOD FOR CHROMOSOMAL ABNORMALITIES AND METHOD FOR EVALUATING INDUCIBILITY” (Sumitomo Chemical Company, Limited, priority 2016, published 2019).

Tests used:
[1] = from known documents (Kirkland 2016; Lasne 1984; Aardema 2006); cited from earlier work
[2] = test system: human iPS cell-derived T lymphocyte; experiment: In vitro micronucleus test using human iPS cell-derived T lymphocyte (Example 2); settings: iPS cell line 12; 33 hr treatment with CytoB; CPA 3 hr with 1% S9; doses of Table 3; Fisher's exact test

CN(N=O)C(=N)N[N+](=O)[O-]
judgment result expected from known information (in vitro micronucleus test) [1]: positive | judgment result obtained in this Example (in vitro micronucleus test) [2]: positive
